Patent publication US8143315B2, “Salts of the active substance rasagiline” (priority 2006, dated 2012)

- solubility in citric acid solution (Granulation 1 with mannitol (55%)): high
- solubility in citric acid solution (Granulation 2 without mannitol): high
Substance: rasagiline tartrate

Like-named read-outs stand apart in the source and are kept apart here.
